Reference: article PMC4428678

Target: His-tagged human CRMP-2 (residues 1-490) (human) (UniProt Q16555)
Experiment: SEC

- stoichiometry N: 4
Substance: His-tagged human CRMP-2 (residues 1-490) (from UniProt Q16555 1-490) (domain or fragment)
